The numbers were not newly measured in publication PMC7078148, which cites them from elsewhere.

The chains behind the UniProt entries cited, without tags or fusion partners. Residues count along the entry.
UniProt Q99714, 2-261: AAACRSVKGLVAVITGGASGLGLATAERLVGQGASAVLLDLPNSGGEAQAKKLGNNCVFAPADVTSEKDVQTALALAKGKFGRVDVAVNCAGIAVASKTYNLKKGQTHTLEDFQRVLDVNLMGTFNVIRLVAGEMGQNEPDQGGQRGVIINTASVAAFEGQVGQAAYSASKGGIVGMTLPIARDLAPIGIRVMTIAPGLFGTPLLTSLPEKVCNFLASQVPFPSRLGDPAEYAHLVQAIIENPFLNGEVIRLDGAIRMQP

The data set has as its target amyloid beta (Homo sapiens) (UniProt P05067).

pKd: −log10 of the molar value.

Turning to 17β-HSD10 (from UniProt Q99714), the pKd is 7.22.

Broadly, the pKd is the Kd on a negative log10 scale, so that one unit is a factor of ten.
